This is a selection; strong and weak results do not stand in their true shares. Some tests of the compounds listed are not included; inactive here does not mean inactive elsewhere. Activity calls are given as the source filed them. No rule for the calls is given here.
experiment: PubChem AID 2252; conditions: THP-1 viability, CellTiter-Glo luminescence, 72 h; at 50 µM (top of the series);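 also: 100% = mean of untreated cell control wells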

| SMILES | viability |
| --- | --- |
| COc1ccc(C(=O)NCC2(N(C)C)CCCCC2)cc1 | inactive: 102% |
